Earlier results on one compound are cited in patent US20190365694A1, “COMPOSITION OF MATTER AND USE THEREOF FOR PREVENTING AND TREATING MOTION SICKNESS” (GT BIOPHARMA, INC., priority 2016, published 2019).

The data set deals with muscarinic receptors. As to conditions: in vitro, guinea pig bladder and ileum.

As to `CCN(CC)CC#CCOC(=O)[C@](O)(c1ccccc1)C1CCCCC1` [R-oxybutynin, (R)-4-diethylaminobut-2-ynyl 2-cyclohexyl-2-hydroxy-2-phenylethanoate], the “affinity for muscarinic receptors relative to S-oxybutynin” value is “significantly higher”.
